In this experiment the target is Runt-related transcription factor 1 (Homo sapiens) + Core-binding factor subunit beta (Homo sapiens) (UniProt Q01196+Q13951). As to the kind of experiment: qHTS Assay for Compounds Blocking the Interaction Between CBF-beta and RUNX1 for the Treatment of Acute Myeloid Leukemia. Also: % of control where 0% means no effect. As to conditions: AlphaScreen CBFb-His/RUNX1-biotin binding, biochemical. (qHTS replaces the single test concentration by a dilution series.)

Amino acid sequences for entries named in this document (tags omitted).
UniProt Q01196, whole entry, looked up: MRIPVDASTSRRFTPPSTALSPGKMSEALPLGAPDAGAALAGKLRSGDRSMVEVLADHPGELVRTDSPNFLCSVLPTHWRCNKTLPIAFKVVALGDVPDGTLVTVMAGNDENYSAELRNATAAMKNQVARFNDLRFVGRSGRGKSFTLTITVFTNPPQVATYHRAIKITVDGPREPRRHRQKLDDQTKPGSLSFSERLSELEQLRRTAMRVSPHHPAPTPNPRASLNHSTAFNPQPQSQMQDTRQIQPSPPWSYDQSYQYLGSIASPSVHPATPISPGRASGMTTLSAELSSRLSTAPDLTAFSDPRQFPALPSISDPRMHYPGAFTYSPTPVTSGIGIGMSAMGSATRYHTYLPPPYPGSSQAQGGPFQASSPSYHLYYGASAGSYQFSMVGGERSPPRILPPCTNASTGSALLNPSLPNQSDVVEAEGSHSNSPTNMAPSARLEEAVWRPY
UniProt Q13951, whole entry, looked up: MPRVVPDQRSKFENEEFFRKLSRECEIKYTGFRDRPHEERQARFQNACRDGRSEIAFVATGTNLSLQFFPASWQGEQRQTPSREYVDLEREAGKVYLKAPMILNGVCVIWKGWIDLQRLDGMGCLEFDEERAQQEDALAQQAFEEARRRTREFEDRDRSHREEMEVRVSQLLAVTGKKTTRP

The mark [1] stands for this setting: at 59.8 µM (top of the series) unless noted.

Several values for one entry are separate records, joined by “and”; a condition that tells them apart may be missing. Identical values can stand only once. The list shows a part of the results, in another mix than the full data. Records with an inconclusive call do not appear. Activity calls are given as the source filed them. Calls follow the shape of the dose curve; as a rule, active = well fitted curve in the direction sought with a large enough effect; inconclusive = small, poorly fitted or top-dose-only effect, or effect the other way, or another doubt; inactive = no such curve, though single readings can be large or run the other way.

Regarding `C(Cc1nn[nH]n1)Cc1nn[nH]n1`, under setting [1], the activity, negative = inhibition was inactive: 0.295%.
Still for that read-out and setting: then `O=C(OC1CN2CCC1CC2)c1cccc(Cl)c1` (stereo not drawn), with inactive: 2.66%; and `O=[N+]([O-])c1ncn(CCn2cnc([N+](=O)[O-])n2)n1`, with inactive: 11.3%; and `CC(=O)NC(SC(=S)N(C)C)C(Cl)(Cl)Cl` (stereo not drawn), with inactive: -0.121%.
Turning to `O=[As](O)(c1ccccc1)c1ccc(O)cc1`, the activity, negative = inhibition under setting [1] was inactive: -12.2%.
Regarding `C[C@H]1OP(=O)(Oc2ccccc2)[C@H](O)[C@H](O)[C@H]1N=[N+]=[N-]` (stereo partly drawn), the activity, negative = inhibition under setting [1] is inactive: 11.1%.
The same measure, in the same setting: then `O=P(Nc1nc2ccccc2s1)(c1ccccc1)c1ccccc1`, with inactive: 2.3%.
As for `CN(C(=O)Cc1ccccc1)[C@H]1CC[C@@]2(CCCO2)C[C@@H]1N1CCCC1`, the activity, negative = inhibition under setting [1] is inactive: 7.27%.
For `Cc1cc([N+](=O)[O-])cc([N+](=O)[O-])c1O`, the activity, negative = inhibition under setting [1] was inactive: -3.79% [at 21.7 µM].
With `O=P(Nc1ccccn1)(c1ccc(Br)cc1)c1ccc(Br)cc1`, the activity, negative = inhibition under setting [1] is inactive: 3.17%.
As for `CCC(C)(OOC(C)(C)C)OOC(C)(C)C`, under setting [1], the activity, negative = inhibition is inactive: -4.38%.
The same measure, in the same setting: to `c1nnnn1CCn1cnnn1` belongs inactive: 1.07%.
In the case of `O=P(Nc1nccs1)(c1ccccc1)c1ccccc1`, the activity, negative = inhibition under setting [1] was inactive: 2.49%.
For `CC(C)C(=O)NC(Sc1ccccc1)C(Cl)(Cl)Cl` (stereo not drawn), under setting [1], the activity, negative = inhibition was inactive: -0.973%.
On to `CC(=O)Nc1ccc(Oc2c([N+](=O)[O-])cc([N+](=O)[O-])cc2[N+](=O)[O-])cc1`, for which the activity, negative = inhibition under setting [1] was inactive: -2.26%.
Consider `CC(=O)Nc1ccc([As](=O)(O)O)c(O)c1`, for which the activity, negative = inhibition under setting [1] is inactive: 17.5%.
For `C[C@@H]1C=CCP(=O)(Oc2ccccc2)O1` (stereo partly drawn), under setting [1], the activity, negative = inhibition is inactive: 6.36%.
The same measure, in the same setting: then `C[C@H]1OP(=O)(Oc2ccccc2)C[C@@H]2O[C@@H]21` (stereo partly drawn), with inactive: 6.37%; and `CC(C)(C)C(=O)NC(Sc1ccccc1)C(Cl)(Cl)Cl` (stereo not drawn), with inactive: 6.45%.
On the same count and under the same terms, then `CCOc1ccc(C2=NCC(CBr)S2)cc1` (stereo not drawn), with inactive: -1.64%.
On the same count and under the same terms, then `O=P1(Nc2nc3ccc(Cl)cc3s2)COc2ccccc2O1` (stereo not drawn), with inactive: -3.5%.
For the molecule `CN(C)C(=O)Oc1noc2ccccc12`, the activity, negative = inhibition under setting [1] is inactive: 7.21%.
Regarding `O=c1c2cc([N+](=O)[O-])ccc2[nH]c2c([N+](=O)[O-])cc([N+](=O)[O-])cc12`, under setting [1], the activity, negative = inhibition was inactive: -18.8%.
In the case of `Cc1ccccc1OP(=O)(Nc1ccccn1)Oc1ccccc1C`, the activity, negative = inhibition under setting [1] is inactive: -1.8%.
Still for that read-out and setting: to `Cc1ccc(OP(=O)(Nc2ccccn2)Oc2ccc(C)cc2)cc1` belongs inactive: 0.314%; to `CC(=O)NC(SC(=S)N(CC(C)C)CC(C)C)C(Cl)(Cl)Cl` (stereo not drawn), inactive: 0.902%; to `COC(=O)c1cc2c(s1)N=C(c1ccccc1)N(C)P2(=O)N1CCOCC1` (stereo not drawn), inactive: 0.436%.
For the molecule `CCC(=O)N1C2C3N(C(=O)CC)C1C1N(C(=O)CC)C(C(N1C(=O)CC)N3C(=O)CC)N2C(=O)CC`, the activity, negative = inhibition under setting [1] is inactive: 2.88%.
Take `O=C(NC1CCS(=O)(=O)C1)NP(=S)(Oc1ccccc1)Oc1ccccc1` (stereo not drawn): under setting [1], the activity, negative = inhibition was inactive: 7.8%.
On the same count and under the same terms, then `CCNC(=S)/N=C(\N)N[N+](=O)[O-]`, with inactive: -1.39%; and `CCOC(=O)NC(Sc1ccccc1)C(Cl)(Cl)Cl` (stereo not drawn), with inactive: 8.55%.
Same read-out and setting: to `Cc1ccc(NP(=O)(Oc2cccc(C)c2)Oc2cccc(C)c2)nc1` belongs inactive: 8.07%; to `c1ccc(-c2nn[nH]n2)c(-c2nn[nH]n2)c1`, inactive: 5.01%; to `CCN(N=Nc1nonc1N)c1nonc1N`, inactive: 0.499%.
Still for that read-out and setting: then `Nc1cccc2ccc([As](=O)(O)O)cc12`, with inactive: -8.3%.
Turning to `CN(C(=O)Cc1ccc(Cl)c(Cl)c1)[C@H]1CCCC[C@@H]1N1CCCC1`, the activity, negative = inhibition (at 21.7 µM (top of the series)) is inactive: 0.0174% and inactive: 4.01% and inactive: 5.71%.
Turning to `Cc1ccc(NP(=O)(Oc2ccccc2F)Oc2ccccc2F)nc1`, the activity, negative = inhibition under setting [1] is inactive: 1.84%.
Regarding `CCOP(=O)(Nc1ccccc1)OCC`, under setting [1], the activity, negative = inhibition was inactive: 0.0698% and inactive: 1.8%.
Still for that read-out and setting: to `Cc1cc(SC(NC(=O)c2ccc(F)cc2)C(Cl)(Cl)Cl)ncn1` (stereo not drawn) belongs inactive: 1.92%.
Still for that read-out and setting: then `O=C(O)c1ccccc1[As](=O)(O)O`, with inactive: 9.22%; and `CC(=O)Nc1ccc([As](=O)(O)O)cc1`, with inactive: 8.8%.
Take `O=P(Nc1nc2ccc(Cl)cc2s1)(c1ccccc1)c1ccccc1`: under setting [1], the activity, negative = inhibition was inactive: 0.846%.
Take `CC(C)CC(=O)NC(Sc1ccc(Cl)cc1)C(Cl)(Cl)Cl` (stereo not drawn): the activity, negative = inhibition under setting [1] is inactive: 6.3%.
With `Nc1cc(N)c2nonc2c1[N+](=O)[O-]`, the activity, negative = inhibition under setting [1] is inactive: 8.21%.
Same read-out and setting: to `Cc1c2non([O-])c-2c(C)[n+](=O)[n+]1[O-]` belongs inactive: -2.76%; to `O=C(NC(Sc1ccncn1)C(Cl)(Cl)Cl)c1ccccc1` (stereo not drawn), inactive: 4.85%.
Still for that read-out and setting: then `Oc1ccccc1CNc1ccccn1`, with inactive: 0.45%.
Same read-out and setting: then `Cc1ccc(OP(=O)(Nc2nccs2)Oc2ccc(C)cc2)cc1`, with inactive: 3.04%; and `COc1ccccc1OP(=O)(Nc1ccc(C)cn1)Oc1ccccc1OC`, with inactive: 1.47%.
On to `Clc1ccc(Cl)c(NC2=NCC(CBr)S2)c1` (stereo not drawn), for which the activity, negative = inhibition under setting [1] is inactive: -1.11%.
In the case of `CN1CCCC(OC(=O)C(c2ccccc2)c2ccccc2)C1` (stereo not drawn), under setting [1], the activity, negative = inhibition was inactive: 20.7%.
With `NC(=O)c1cc([N+](=O)[O-])cc([N+](=O)[O-])c1N`, the activity, negative = inhibition under setting [1] was inactive: 12.1%.
For the molecule `Cc1ccc(N/C(=N/P(=O)(N2CCOCC2)N2CCOCC2)N2CCOCC2)cc1`, the activity, negative = inhibition under setting [1] was inactive: 8.74%.
On to `CN(C)C(=O)OCCc1n(C)cc[n+]1C`, for which the activity, negative = inhibition under setting [1] is inactive: -6.24%.
The same measure, in the same setting: to `CC(C)=N/N=C(\N)N[N+](=O)[O-]` belongs inactive: 1.67%; to `CC(=O)C1=CCCC2CCC1N2` (stereo not drawn), inactive: -8.34% and inactive: 16.5%.
Same read-out and setting: then `CC1CCN(C(=O)Oc2c(Cl)cc(Cl)c3cccnc23)CC1`, with inactive: 5.32%; and `Nc1ccc([As](=O)(O)c2ccc(N)cc2)cc1`, with inactive: -0.287%; and `CCN(/C(=N/P(=O)(N1CCOCC1)N1CCOCC1)N1CCOCC1)c1ccc(OC)cc1`, with inactive: 2.11%.
Take `CC(=O)N1C2C3N(C(C)=O)C1C1N(C(C)=O)C(C(N1C(C)=O)N3C(C)=O)N2C(C)=O`: under setting [1], the activity, negative = inhibition is inactive: -1.5%.
For the molecule `O=[N+]([O-])c1cccc2n[nH]nc12`, the activity, negative = inhibition under setting [1] was inactive: 6.54%.
The same measure, in the same setting: then `Cc1ccc(NP(=O)(Oc2ccccc2)Oc2ccccc2)nc1`, with inactive: -3.69%; and `COc1ccc(C2=NCC(CBr)S2)cc1` (stereo not drawn), with inactive: 5.03%.
`O=[N+]([O-])c1cccc(NC2=NCC(CBr)S2)c1` (stereo not drawn): the activity, negative = inhibition under setting [1] is inactive: 3.75%.
For the molecule `O=C(O)CNc1ccc([As](=O)(O)O)cc1`, the activity, negative = inhibition under setting [1] was inactive: 0.195%.
On the same count and under the same terms, to `CC(C)(C)C(=O)NC(Sc1ccncn1)C(Cl)(Cl)Cl` (stereo not drawn) belongs inactive: 0.593%; to `O=[N+]([O-])c1ncn(CCn2ncnc2[N+](=O)[O-])n1`, inactive: 1.8%.
In the case of `O=C(Nc1cc([As](=O)(O)O)ccc1O)c1ccccc1`, the activity, negative = inhibition under setting [1] was inactive: 5.78%.

The values above are taken from PubChem BioAssay AID1477 (National Center for Advancing Translational Sciences (NCATS), 2009).
